AlphaSeq binding of Ab-14 heavy chain variants to a spike HR2 peptide

Reference: Engelhart et al. 2022, doi:10.1038/s41597-022-01779-4. File: FLAb, binding data.

Target peptide (SARS-CoV-2 spike, HR2 region): PDVDLGDISGINAS

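Phage display of a naive human antibody library on the peptide gave the parent. The library (AAYL49) carries one to three amino acid substitutions per variant, with no insertions or deletions. The scFvs were displayed on barcoded MATa yeast, the peptide on MATalpha yeast. After mating in shaken culture at 30 °C for 16 h, diploids were selected and their barcode pairs sequenced. The ratio of observed to expected reads was calibrated, replicate by replicate, on BCL2-family standards whose Kd was known from biolayer interferometry. Each pool was mated in three replicate cultures.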

Ab-14 is the parent antibody, in scFv form: VH, then a 15-residue (Gly4Ser)3 linker, then VL. The light chain is unchanged in all variants.
VH: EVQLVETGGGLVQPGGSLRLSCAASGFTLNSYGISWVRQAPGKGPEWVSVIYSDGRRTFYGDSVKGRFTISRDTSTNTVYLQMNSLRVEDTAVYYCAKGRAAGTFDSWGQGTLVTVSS
VL: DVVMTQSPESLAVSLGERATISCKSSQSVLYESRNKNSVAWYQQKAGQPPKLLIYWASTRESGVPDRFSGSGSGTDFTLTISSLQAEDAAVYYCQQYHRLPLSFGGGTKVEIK

Each variant's VH is given in full. Numbers give log10(Kd / nM), so 0 is 1 nM and 3 is 1 µM. Smaller is tighter. Where no diploid with the target was found in that replicate, the entry reads "nd": below detection, most likely a poor binder, though not proof of it. In this assay the parent's reference entry averaged 0.65; its copy inside this library read 4.11 (one replicate of three). Background: pairings of library AAYL49 with three empty control strains gave a value in 15% of cases (median 4.06, 5th percentile 2.83). Values in that range, when seen in few replicates, are hard to tell from nonspecific mating.

Result nd, 3.63, nd, variant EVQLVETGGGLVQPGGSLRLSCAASGFTLNSYQISWVRQAPGKGPEWVSVIYSDGRHTFYGDSVKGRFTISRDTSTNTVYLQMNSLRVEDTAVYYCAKGRTAGTFDSWGQGTLVTVSS.
Result 1.46, 1.50, 1.62, variant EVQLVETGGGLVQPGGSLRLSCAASGFTLNSYGVSWVRQAPGKGPEWVSVIYSDGRRNFYIDSVKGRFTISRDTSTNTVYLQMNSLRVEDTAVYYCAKGRAAGTFDSWGQGTLVTVSS.
Result nd, 3.87, nd, variant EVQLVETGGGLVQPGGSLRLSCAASGFTLNSYGISWVRQAPGKGPEWVSPWYSDGRRTFYGDSVKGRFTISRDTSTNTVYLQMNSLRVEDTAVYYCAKGRNAGTFDSWGQGTLVTVSS.
Result 3.41, 3.83, nd, variant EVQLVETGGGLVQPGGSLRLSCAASGWTLNSYGISWVRQAPGKGPEWVSVIYSDYRRTFYHDSVKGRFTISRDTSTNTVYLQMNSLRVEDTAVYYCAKGRAAGTFDSWGQGTLVTVSS.
Result 3.34, 2.06, 2.36, variant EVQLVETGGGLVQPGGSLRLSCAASGFTLNSYGISWVRQAPGKGPEWVSVINADGRRTFYTDSVKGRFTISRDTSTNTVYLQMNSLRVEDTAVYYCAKGRAAGTFDSWGQGTLVTVSS.
Result 5.01, nd, 4.85, variant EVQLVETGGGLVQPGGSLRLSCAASGFTLNSYGISWVRQAPGKGPEWVSVIYSDGRNTFYEDIVKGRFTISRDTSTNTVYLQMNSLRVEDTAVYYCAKGRAAGTFDSWGQGTLVTVSS.
Result nd, nd, nd, variant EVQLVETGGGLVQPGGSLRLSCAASGFCLNSYGICWVRQAPGKGPEWVSVIYSDGRRTFYGDSVKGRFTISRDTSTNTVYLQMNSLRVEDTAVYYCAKGPAAGTFDSWGQGTLVTVSS.
Result nd, nd, nd, variant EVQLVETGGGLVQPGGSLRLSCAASGFSLNSYYISWVRQAPGKGPEWVSVIYSDGRRTFYGDSVKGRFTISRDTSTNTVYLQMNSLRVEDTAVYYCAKGRASGTFDSWGQGTLVTVSS.
Result nd, 5.66, 4.67, variant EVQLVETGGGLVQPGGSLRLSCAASGFTLNFNGISWVRQAPGKGPEWVSVIYSDGRRTFYGTSVKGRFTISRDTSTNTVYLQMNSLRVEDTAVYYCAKGRAAGTFDSWGQGTLVTVSS.
Result 3.78, 3.74, nd, variant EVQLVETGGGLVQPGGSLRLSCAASGFTLNSNGISWVRQAPGKGPEWVSVIYHDGRITFYGDSVKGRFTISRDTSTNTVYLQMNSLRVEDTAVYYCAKGRAAGTFDSWGQGTLVTVSS.
Result nd, nd, nd, variant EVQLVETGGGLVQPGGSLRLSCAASGFTLNSYGISWVRQAPGKGPEWVSVIYSDGRRTFYGDSVYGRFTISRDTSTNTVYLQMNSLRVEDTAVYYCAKGVAAYTFDSWGQGTLVTVSS.
Result nd, nd, nd, variant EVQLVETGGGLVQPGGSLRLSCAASGFTLNSYGISWVRQAPGKGPEWVSVIYTDGRRTLYYDSVKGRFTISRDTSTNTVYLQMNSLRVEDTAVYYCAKGRAAGTFDSWGQGTLVTVSS.
Result nd, nd, nd, variant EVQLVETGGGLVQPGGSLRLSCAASGFTLNSYGISWVRQAPGKGPEWVSVIYSDGGMTFYGDSVVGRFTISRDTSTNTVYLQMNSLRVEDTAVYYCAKGRAAGTFDSWGQGTLVTVSS.
Result 5.07, nd, nd, variant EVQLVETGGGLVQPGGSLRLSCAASGFTQNSYTISWVRQAPGKGPEWVSVIYSDGRATFYGDSVKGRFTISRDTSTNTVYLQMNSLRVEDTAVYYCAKGRAAGTFDSWGQGTLVTVSS.
Result nd, nd, 3.60, variant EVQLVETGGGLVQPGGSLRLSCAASWFTLNSYGISWVRQAPGKGPEWVSVIPSDGRRVFYGDSVKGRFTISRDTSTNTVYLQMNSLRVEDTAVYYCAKGRAAGTFDSWGQGTLVTVSS.
Result 3.66, 3.44, nd, variant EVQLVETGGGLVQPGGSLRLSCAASGFTLNSYGIQWVRQAPGKGPEWVSVIYSDGYRTFYGDSVKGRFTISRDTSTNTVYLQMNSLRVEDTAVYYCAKGIAAGTFDSWGQGTLVTVSS.
Result nd, nd, nd, variant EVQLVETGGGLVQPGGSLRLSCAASTFTLNSYGISWVRQAPGKGPEWVSVTYSDGRRTFYGDSVKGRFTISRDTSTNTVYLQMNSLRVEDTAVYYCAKGRAAGTFDHWGQGTLVTVSS.
Result nd, nd, nd, variant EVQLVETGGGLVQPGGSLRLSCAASGFTLNSYGISWVRQAPGKGPEWVSVIHSDGRRTFYMDSVKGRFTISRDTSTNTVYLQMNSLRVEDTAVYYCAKGRAAGNFDSWGQGTLVTVSS.
Result 5.14, nd, 4.76, variant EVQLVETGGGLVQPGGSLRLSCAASGFTLNSYGISWVRQAPGKGPEWVSSIYSDGRRTFYGYSVKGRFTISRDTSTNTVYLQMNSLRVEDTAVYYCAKGFAAGTFDSWGQGTLVTVSS.
Result nd, nd, nd, variant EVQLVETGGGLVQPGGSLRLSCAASYFFLNSYGISWVRQAPGKGPEWVSVIYSHGRRTFYGDSVKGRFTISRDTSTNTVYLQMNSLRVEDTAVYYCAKGRAAGTFDSWGQGTLVTVSS.
Result nd, nd, 5.27, variant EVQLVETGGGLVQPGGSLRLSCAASGDTLNSYGISWVRQAPGKGPEWVSVIYSDGRRTGYGDSVKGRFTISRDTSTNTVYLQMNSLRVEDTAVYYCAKQRAAGTFDSWGQGTLVTVSS.
Result 1.65, 1.72, 2.29, variant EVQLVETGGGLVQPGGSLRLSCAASGFSLNSYGISWVRQAPGKGPEWVSVIYSDGRRTFYGSSCKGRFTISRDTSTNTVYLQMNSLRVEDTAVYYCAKGRAAGTFDSWGQGTLVTVSS.
Result nd, nd, nd, variant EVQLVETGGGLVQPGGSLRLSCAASGFTWNSYGISWVRQAPGKGPEWVSVIYSYGRRTFYGDSVFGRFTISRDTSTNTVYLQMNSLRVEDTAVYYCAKGRAAGTFDSWGQGTLVTVSS.

The last 3 entries again:

The variant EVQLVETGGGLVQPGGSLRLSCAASGDTLNSYGISWVRQAPGKGPEWVSVIYSDGRRTGYGDSVKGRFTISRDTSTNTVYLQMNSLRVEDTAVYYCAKQRAAGTFDSWGQGTLVTVSS gave nd, nd, 5.27.
The variant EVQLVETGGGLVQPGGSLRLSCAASGFSLNSYGISWVRQAPGKGPEWVSVIYSDGRRTFYGSSCKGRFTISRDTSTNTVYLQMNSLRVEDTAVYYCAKGRAAGTFDSWGQGTLVTVSS gave 1.65, 1.72, 2.29.
The variant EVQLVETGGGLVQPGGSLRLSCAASGFTWNSYGISWVRQAPGKGPEWVSVIYSYGRRTFYGDSVFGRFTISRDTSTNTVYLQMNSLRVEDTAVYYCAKGRAAGTFDSWGQGTLVTVSS gave nd, nd, nd.